Results on two compounds are retold here after patent US11407765B2, “Tetracyclic heteroaryl compounds” (AstraZeneca AB, priority 2018, dated 2022).

By UniProt entry, the sequences of proteins in these tests, tags left out. Residues count along the entry.
UniProt P01116, 1-188 isoform 2 G12C: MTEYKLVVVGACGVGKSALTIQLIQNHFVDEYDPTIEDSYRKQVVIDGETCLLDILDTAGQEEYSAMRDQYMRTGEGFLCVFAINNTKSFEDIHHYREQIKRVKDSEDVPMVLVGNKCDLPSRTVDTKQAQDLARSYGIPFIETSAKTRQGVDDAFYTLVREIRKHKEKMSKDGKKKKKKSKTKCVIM

This test concerns the target KRasG12C (Homo sapiens, UniProt P01116, G12C). Kind of test: KRasG12C functional assay (HTRF, SOS-mediated nucleotide exchange / Raf RBD binding). As to conditions: read-out: KRasG12C functional assay IC50 value; 4 hrs incubation with GDP loaded biotinylated KRasG12C; single experiment or average of two or more. Format: biochemical. On the technique in general: Time-resolved FRET reads energy transfer from a long-lived donor to a nearby acceptor.

As a reminder, the IC50 is the concentration that inhibits the measured activity by half. As for `Cc1ccc2[nH]ncc2c1-c1c(Cl)c2c3c(ncnc3c1F)N1C[C@@H](C)N(C(=O)/C=C/CN(C)C)C[C@H]1CO2` [Example 53], the half-inhibitory concentration (IC50) was 0.186 µM. Under `Cc1ccc2[nH]ncc2c1-c1c(Cl)c2c3c(ncnc3c1F)N1C[C@@H](C)N(C(=O)/C=C/CN(C)C)C[C@H]1CO2` [Example 52] stands 2.14 µM.
